According to patent US11964973B2 (priority 2019, dated 2024):
Where two headings read alike, the source gives them in different places.

Chains of the proteins cited; added tags and fusions are not shown. Lines headed by an entry give the natural chain unless they say otherwise; changes in a name come on top.
UniProt Q13574: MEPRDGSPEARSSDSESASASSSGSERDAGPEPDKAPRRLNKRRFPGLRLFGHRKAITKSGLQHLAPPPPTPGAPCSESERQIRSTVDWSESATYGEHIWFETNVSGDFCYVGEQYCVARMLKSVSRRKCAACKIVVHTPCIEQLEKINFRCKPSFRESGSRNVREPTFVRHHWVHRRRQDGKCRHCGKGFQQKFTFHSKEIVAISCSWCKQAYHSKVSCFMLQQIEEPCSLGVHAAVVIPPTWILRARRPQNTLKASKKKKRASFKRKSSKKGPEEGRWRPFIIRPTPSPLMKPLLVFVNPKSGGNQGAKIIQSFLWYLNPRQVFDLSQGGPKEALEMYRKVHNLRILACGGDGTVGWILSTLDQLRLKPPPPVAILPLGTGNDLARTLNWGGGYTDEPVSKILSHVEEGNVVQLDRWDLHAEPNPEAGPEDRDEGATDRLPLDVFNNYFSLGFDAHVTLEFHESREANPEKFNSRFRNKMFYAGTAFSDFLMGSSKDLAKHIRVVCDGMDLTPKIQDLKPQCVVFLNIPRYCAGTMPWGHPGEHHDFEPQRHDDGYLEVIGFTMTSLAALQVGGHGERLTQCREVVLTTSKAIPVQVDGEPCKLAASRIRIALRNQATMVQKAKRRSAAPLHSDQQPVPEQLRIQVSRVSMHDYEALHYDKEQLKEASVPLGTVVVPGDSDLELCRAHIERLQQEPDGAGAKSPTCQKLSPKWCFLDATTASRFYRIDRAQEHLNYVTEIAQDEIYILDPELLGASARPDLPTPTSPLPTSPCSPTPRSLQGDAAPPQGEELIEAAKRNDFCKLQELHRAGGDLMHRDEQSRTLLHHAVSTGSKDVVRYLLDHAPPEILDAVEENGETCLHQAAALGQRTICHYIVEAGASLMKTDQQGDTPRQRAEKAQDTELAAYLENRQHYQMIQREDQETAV

Assays:
human DGKζ = human DGKζ (Homo sapiens (Human), UniProt Q13574); assay: biochemical; conditions: liposome (LIPGLO) assay
[1] = system: human venous whole blood, CD8 positive population (pERK); assay: DGK human whole blood pERK assay; type: cell-based
Procedure: Assay 11: DGK Human Whole Blood pERK Assay
Human whole blood ERK phosphorylation assay was performed with human venous whole blood obtained from healthy donors (drawn with Heparin as anti-coagulant). […] Heparinized human whole blood was added to the compound plate at 9 μL per well and incubated for one hour at 37° C. in a humidified 95%, air/5% CO2 incubator. After one hour of compound incubation, 1 μL of human anti-CD3 antibody (in-house) in the presence of cross-linking antibody goat anti-mouse IgG (4 μg/mL) was added to the well at 1 μg/mL final concentration for stimulation of pathway and additionally incubated for 15 minutes at 37° C. […] Samples analyzed using the Intellicyt® iQue Screener PLUS. The pERK activation was quantitated by the percentage of pERK positive population within CD8 positive population.

[2] = read-out: DGK HWB, human whole blood pERK
[3] = Homo sapiens, CD8 positive, read-out: DGK HWB, human whole blood pERK

C[C@@H]1CN(c2cc(=O)n(C)c3ccc(C#N)nc23)CC[C@H]1Oc1c(F)cccc1F (single isomer, unassigned) [Example 126] was tested, and the IC50 (human DGKζ) was ≥ 250000 nM.

In the case of C[C@@H]1CC(Oc2cccc(C(F)(F)F)c2)[C@@H](C)CN1c1nc(=O)n(C)c2ccc(C#N)nc12 (stereo partly drawn) [Example 253, 4-((2R,5S)-2,5-dimethyl-4-(3-(trifluoromethyl)phenoxy)piperidin-1-yl)-1-methyl-2-oxo-1,2-dihydropyrido[3,2-d]pyrimidine-6-carbonitrile], the EC50 [1, 2] is reported as 2300 nM.

For C[C@@H]1CN(c2nc(=O)n(C)c3ccc(C#N)nc23)[C@@H](C)CC1Oc1cccc(C(F)(F)F)c1 (stereo partly drawn) [Example 254, 4-((2S,5R)-2,5-dimethyl-4-(3-(trifluoromethyl)phenoxy)piperidin-1-yl)-1-methyl-2-oxo-1,2-dihydropyrido[3,2-d]pyrimidine-6-carbonitrile], the EC50 [1, 2] was 2300 nM.

C[C@H]1CN(c2nc(=O)n(C)c3ccc(C#N)nc23)[C@@H](C)CC1Oc1cccc(C(F)(F)F)c1 (stereo partly drawn) [Example 255, 8-((2S,5S)-2,5-dimethyl-4-(3-(trifluoromethyl)phenoxy)piperidin-1-yl)-5-methyl-6-oxo-5,6-dihydro-1,5-naphthyridine-2-carbonitrile] gave an EC50 [1, 3] of 2200 nM.

C[C@H]1CN(c2nc(=O)n(C)c3ccc(C#N)nc23)[C@@H](C)CC1Oc1cccc(C(F)(F)F)c1 (stereo partly drawn) [Example 258, 8-((2S,5S)-2,5-dimethyl-4-(3-(trifluoromethyl)phenoxy)piperidin-1-yl)-5-methyl-6-oxo-5,6-dihydro-1,5-naphthyridine-2-carbonitrile] was tested, and the EC50 [1, 2] was 1200 nM.

For CC1CN(c2c(C#N)c(=O)n(C)c3ccc(C#N)nc23)CCC1N(C)C(=O)c1ccc(F)cc1 (stereo not drawn) [Example 288, N-(1-(3,6-dicyano-1-methyl-2-oxo-1,2-dihydro-1,5-naphthyridin-4-yl)-3-methylpiperidin-4-yl)-N-methyl-4-(trifluoromethyl)benzamide], the EC50 [1, 3] was 20000 nM.
